Data from article PMC4507791 (2015).

The chains behind the UniProt entries cited, without tags or fusion partners.
UniProt P27338, whole entry: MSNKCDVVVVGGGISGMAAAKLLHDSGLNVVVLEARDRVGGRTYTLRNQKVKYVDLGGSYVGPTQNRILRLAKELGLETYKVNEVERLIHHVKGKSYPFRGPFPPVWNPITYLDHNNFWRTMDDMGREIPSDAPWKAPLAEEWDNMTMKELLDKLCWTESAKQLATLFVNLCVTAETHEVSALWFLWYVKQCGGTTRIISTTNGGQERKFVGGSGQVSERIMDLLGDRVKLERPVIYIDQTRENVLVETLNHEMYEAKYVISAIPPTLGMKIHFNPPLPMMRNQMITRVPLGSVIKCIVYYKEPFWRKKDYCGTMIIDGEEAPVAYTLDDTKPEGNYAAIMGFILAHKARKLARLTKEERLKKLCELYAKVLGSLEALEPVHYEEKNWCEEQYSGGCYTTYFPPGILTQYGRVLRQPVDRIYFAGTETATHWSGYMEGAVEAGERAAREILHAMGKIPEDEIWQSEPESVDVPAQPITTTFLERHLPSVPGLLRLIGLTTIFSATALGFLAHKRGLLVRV

Target: MAO-B (Homo sapiens, UniProt P27338)
Experiment: IC50 determination, inhibition of recombinant human MAO-B
Format: biochemical
Conditions: for SI (selectivity index, IC50(MAO-A)/IC50(MAO-B)): selectivity for the MAO-B isoform

| IC50 | SI (selectivity index, IC50(MAO-A)/IC50(MAO-B)) | SMILES |
| --- | --- | --- |
| 0.014 ± 0.002 µM |  | CC(=O)c1ccc(OCc2ccc(Cl)cc2)cc1O [Compound 2g, 2-Acetyl-5-(4-chlorobenzyloxy)phenol] |
|  | 1,233 | CC(=O)c1ccc(OCc2ccc(F)cc2)cc1O [Compound 2e, 2-Acetyl-5-(4-fluorobenzyloxy)phenol] |
|  | > 9,550 and 17,482 | CC(=O)c1ccc(OCc2cccc(F)c2)cc1O [Compound 2d, 2-Acetyl-5-(3-fluorobenzyloxy)phenol] |

Where “and” joins values, the source holds several entries; their conditions need not be identical. Equal entries are not always repeated.
